{
  "source": "patent US20150374749A1",
  "key": {"[1]": {"assay": "Amperometric detection of NO release with NO-sensitive electrode", "procedure": "FIG. 1: SNP efficiently removes H2S from the solution without any NO release. (A) The NO electrode trace of the reaction between H2S and SNP. The upper panel represents the response of the NO electrode (in the dark) to the addition of 100 μM SNP in a buffered solution (straight line), and the response upon the addition of 100 μM of both Na2S and CuCl2 (dashed line). […] . The electrode response to SNP in the absence of light is shown for comparison (straight line). […] . The straight lines represent the corresponding responses upon the addition of only SNP. The points in time at which H2S or CuCl2 were added are marked with arrows. The small arrow at the bottom of each panel denotes the point in time at which SNP was added. (B) H2S electrode traces for the reaction of H2S with SNP. A 50 μM Na2S solution was injected into a 300 mM phosphate buffer at a pH 7.4 under aerobic conditions followed by the injection of an equimolar amount of SNP.\nTo both test the hypothesis of stable S-nitrosothiol formation and determine the actual source of the NO release, the reaction between SNP and H2S was followed using an NO-sensitive electrode both in the total absence of light and under ambient light. The fate of NO was monitored throughout the course of the reaction using ISO-NO probes connected to a Free Radical Analyzer (World Precision Instruments) (Filipovic, M. R. et al., 2012, b)."}, "HUVEC": {"tested_on": "HUVEC", "assay": "Intracellular HNO detection with fluorescent sensor CuBOT1", "settings": "100 μM, 15 min", "procedure": "FIG. 11: Intracellular fluorescence in HUVECs, caused by HNO formation. After loading with the HNO sensor, CuBOT1, the cells were treated with either 100 μM Na2S, 100 μM SNP, or a combination of both. The photomicrographs were taken at a ×40 magnification. […] .\nIt was further sought to confirm the formation of HNO from the SNP and H2S mixture in a biological milieu. To accomplish this goal, a recently developed Cu^2+-based fluorescent sensor, CuBOT1, was used for the intracellular HNO detection (Rosenthal, J. et al., 2009).\nHuman umbilical vein endothelial cells (HUVEC, passage 2-3) were obtained from PromoCell GmbH (Heidelberg, Germany) and cultured in 35 mm μ-dishes (ibidi, Martinsried, Germany) using a commercially available cell growth medium (PromoCell GmbH) at 37° C. and 5% CO2. For NO detection, the cells were preloaded for 10 min with 10 μM 4-amino-5-methylamino-2′,7′-difluorofluorescein diacetate (DAF-FM-DA). For HNO detection, the HUVECs were incubated for 20 min with 10 μM CuBOT1 (Rosenthal, J. et al., 2009; Filipovic, M. R. et al., 2012, b). For both NO detection and HNO detection, the HUVECs were then washed three times and treated with 100 μM SNP, 100 μM H2S or the mixture of both for 15 min. Fluorescence microscopy was performed using an inverted microscope (Axiovert 40 CLF, Carl Zeiss) equipped with green fluorescent filters and an AxioCam. […]"}, "[2]": {"tested_on": "CGRP release from isolated mouse heart", "assay": "Ex-vivo release of CGRP from isolated heart (enzyme immunoassay)", "settings": "1 mM H2S, 500 μM SNP or both; 5 min at 37° C.", "procedure": "FIG. 13: HNO-induced release of CGRP from an isolated mouse heart upon stimulation with a reaction mixture containing 500 μM SNP and 1 mM Na2S.\nThe primary proposed biological marker for HNO formation is the increased release of calcitonin gene-related peptide (CGRP), a potent vasodilator (Paolocci, N. et al., 2001). CGRP is a neuropeptide for chemosensory primary afferent nerve fibers located in the epicardial surface of the heart.\nThe release of CGRP from the isolated heart of C57BL/6 mice was measured as reported in Strecker, T. et al., 2006. Briefly, the mice were suffocated in a pure CO2 atmosphere and the complete heart was excised by cutting the central blood vessels. The procedures were approved by the animal protection authorities (of the “Regierung von Mittelfranken”, Ansbach, Germany). The hearts were passed through a series of synthetic interstitial fluid incubations both with and without the addition of the test compounds (H2S alone, SNP alone, or the combination of H2S and SNP) and spent 5 min in each test tube at 37° C. The CGRP concentration was measured via enzyme immunoassay (Bertin Pharma, Montigny, France)."}, "[3]": {"tested_on": "isolated rat uterus preparations", "assay": "Organ bath study of spontaneous and Ca2+-induced contraction of isolated rat uterus", "procedure": "FIG. 2: Spontaneous and Ca^2+ induced contractile activity of rat uteri treated with H2S (A) or SNP (B). The contractile activity was expressed as the relative ratio between the mean height peak of the untreated control and the treated uteri. The data are expressed as the mean±SEM (n=8). (C) The effects of 1 mM H2S, 1 mM SNP and the combination of both on the spontaneous and Ca^2+ induced uterus contractions.\nThe effects of H2S, SNP and their combination on the spontaneous and Ca^2+-induced contraction of isolated rat uterus preparations were tested. This particular pharmacological model was chosen because, unlike other models, it is relatively resistant (at high millimolar concentration) to SNP-induced dilatation (Hennan, J. K. et al., 1998) but still sensitive to other, real NO donors (Demirkoprulu, N. et al., 2005), which makes it suitable for testing the potential NO release from the SNP and H2S reaction mixture.\nIsolated uteri from virgin Wistar rats (200-250 g) in the oestrus phase of the estrous cycle, as determined by examining a daily vaginal lavage, were used (Appiah, I. et al., 2010). All of the rats were sacrificed by cervical dislocation following a procedure approved by the animal protection authorities (University of Belgrade, Serbia). […] The myometrial tension was recorded isometrically using a TSZ-04-E isolated organ bath and transducer (Experimetria, Budapest, Hungary). […]"}},
  "note": "This is a selection: effects in other tests are not listed, and their absence says nothing.",
  "data": [
    {"substance": "Sodium nitroprusside", "values": [
      {"measurement": "NO release under visible light source (500-550 nm)", "setting": "[1]; 1 mM SNP, with or without 1 mM H2S, irradiated", "result": "released substantial amounts of NO"},
      {"measurement": "NO release under ambient light", "setting": "[1]; ambient light", "result": "Minor amounts of NO were released"},
      {"measurement": "NO release in the dark", "setting": "[1]; total absence of light, buffered solution", "result": "no release of NO"},
      {"measurement": "change in fluorescent intensity of HNO sensor CuBOT1", "setting": "HUVEC", "result": "Neither H2S alone nor SNP alone caused any detectable change"},
      {"measurement": "CGRP release from isolated mouse heart", "setting": "[2]", "result": "small increase"},
      {"measurement": "effect on spontaneous muscle contraction", "setting": "[3]; SNP alone, 1-20 mM", "result": "little effect"},
      {"measurement": "IC50", "setting": "[3]; read-out: IC50 for the Ca2+-induced contractions, Ca2+ (6 mM) contracted rat uterus", "result": 10, "unit": "mM"}
    ]}
  ]
}
